Source: US20240287138A1, “CYCLIC PEPTIDES FOR INHIBITING TNF RECEPTOR 1 ACTIVITY” (Merck Sharp & Dohme LLC, priority 2023, published 2024)
pKd: −log10 of the molar value.

The chains behind the UniProt entries cited, without tags or fusion partners. Residues count along the entry.
UniProt P20333, 23-257 limits assumed: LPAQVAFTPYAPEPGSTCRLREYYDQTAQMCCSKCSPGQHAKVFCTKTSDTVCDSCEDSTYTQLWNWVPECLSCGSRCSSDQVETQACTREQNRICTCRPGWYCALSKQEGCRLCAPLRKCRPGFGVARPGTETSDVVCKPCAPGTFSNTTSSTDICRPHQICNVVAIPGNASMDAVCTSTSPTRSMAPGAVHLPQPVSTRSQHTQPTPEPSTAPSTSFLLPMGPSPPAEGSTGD

Biological target: human TNFR2 ECD protein (Homo sapiens, UniProt P20333)
Test: SPR off-target binding (selectivity) to human TNFR2 ECD
Details: read-out: SPR hTNFR2 KD; biotinylated human TNFR2 ECD on streptavidin chip
Method: B. Procedure for Binding Affinity and Selectivity measured by SPR
Affinity and selectivity for hTNFR1 and TNFR2 was determined using SPR. Human TNFR1 or TNFR2 genes (extracellular domain only) were synthesized with a C-terminal Avi-tag, HRV 3C protease cleavage site followed by a 6His-tag for affinity purification. The final gene product was cloned into pBAC™-1 vector (Millipore Sigma) for expression testing in insect cells. Constructs were transfected into Sf21 cells for baculovirus generation followed by protein expression analysis in Sf21 and Tni cell lines. Large scale expression in Sf21 cells was performed using baculovirus infected insect cells (BIICs) infected at a MOI=2.0 grown for 72 h. Target proteins secreted into the media were harvested via centrifugation and concentrated using diafiltration. TNFR was purified by immobilized metal ion affinity chromatography (IMAC) using a Ni-Sepharose HisTrap™ column (Cytiva™). Isolated TNFR had His tag removed using HRV 3C protease followed by additional purification using Ni-NTA chromatography. […]
The SPR assay uses a Cytiva™ 8K or 8K+ biosensor instrument to measure the kinetics of peptide analytes binding to captured human TNFR1 extracellular domain (ECD) protein; peptide analytes are also evaluated for any off-target binding to human TNFR2 ECD protein in parallel. […]

## CCCC[C@@H]1NC(=O)C2CCC(CC2)NC(=O)[C@H]([C@@H](C)c2c[nH]c3c(OC)cccc23)NC(=O)CN(C)C(=O)[C@H](Cc2ccc(O)cc2)NC(=O)[C@H](Cc2ccc(C(=O)O)cc2)NC(=O)[C@](C)(CO)NC(=O)[C@H](Cc2c[nH]c3c(Cl)cccc23)NC(=O)[C@H](Cc2ccncc2)NC(=O)[C@H](CC(N)=O)NC(=O)[C@H](CCC(=O)O)N(C)C(=O)[C@H](Cc2c[nH]c3ccccc23)NC(=O)[C@@H]2CNCCN2C(=O)[C@H](Cc2ccncc2)NC1=O
  pKd: < 6.00
